Experiments:
[1] = biological target: Histone deacetylase (Homo sapiens) (UniProt Q13547+O15379+Q9UBN7+Q92769+Q9UQL6+Q8WUI4+Q9BY41+Q96DB2+P56524+Q9UKV0+Q969S8); assay: Inhibition of HDAC in human MCF7 cells assessed as increase in alpha-tubulin incubated for 24 hrs by Western blot analysis; format: cell-based; conditions: dose 2-8 µM
[2] = biological target: Estrogen receptor (Homo sapiens) (UniProt P03372); assay: Antagonist activity at ER-alpha in human MCF7 cells incubated for 6 to 24 hrs by Western blot analysis; format: cell-based; conditions: filed as antagonist, dose 2-8 µM, time 6-24 hrs

By UniProt entry, the sequences of proteins in these tests, tags left out. Where a name states a change or a piece, a line headed by the entry shows the natural chain unless it says otherwise.
UniProt Q13547: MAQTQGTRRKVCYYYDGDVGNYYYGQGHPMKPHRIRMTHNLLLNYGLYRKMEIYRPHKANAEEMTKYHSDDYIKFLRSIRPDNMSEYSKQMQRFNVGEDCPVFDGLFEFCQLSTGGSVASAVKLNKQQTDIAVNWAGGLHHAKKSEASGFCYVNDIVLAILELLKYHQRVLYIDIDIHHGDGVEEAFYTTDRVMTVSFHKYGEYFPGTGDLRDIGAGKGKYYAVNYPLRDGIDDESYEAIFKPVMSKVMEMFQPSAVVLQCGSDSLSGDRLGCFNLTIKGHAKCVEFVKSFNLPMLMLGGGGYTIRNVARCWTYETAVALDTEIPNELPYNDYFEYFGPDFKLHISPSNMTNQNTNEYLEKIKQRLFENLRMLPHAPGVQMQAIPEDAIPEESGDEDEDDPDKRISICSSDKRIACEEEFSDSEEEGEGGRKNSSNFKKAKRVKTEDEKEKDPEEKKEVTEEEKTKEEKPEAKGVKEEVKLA
UniProt O15379: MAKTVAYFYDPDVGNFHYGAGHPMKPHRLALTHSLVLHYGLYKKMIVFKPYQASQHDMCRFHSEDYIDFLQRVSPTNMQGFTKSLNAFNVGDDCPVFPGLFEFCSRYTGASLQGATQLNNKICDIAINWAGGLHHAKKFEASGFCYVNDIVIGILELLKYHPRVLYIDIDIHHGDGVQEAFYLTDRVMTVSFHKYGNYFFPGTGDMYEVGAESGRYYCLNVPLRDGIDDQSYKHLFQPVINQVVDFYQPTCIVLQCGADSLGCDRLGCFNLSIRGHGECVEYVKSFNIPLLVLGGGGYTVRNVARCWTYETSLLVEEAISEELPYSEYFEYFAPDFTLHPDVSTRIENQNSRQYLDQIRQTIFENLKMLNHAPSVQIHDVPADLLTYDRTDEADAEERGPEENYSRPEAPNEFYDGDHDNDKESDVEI
UniProt Q9UBN7: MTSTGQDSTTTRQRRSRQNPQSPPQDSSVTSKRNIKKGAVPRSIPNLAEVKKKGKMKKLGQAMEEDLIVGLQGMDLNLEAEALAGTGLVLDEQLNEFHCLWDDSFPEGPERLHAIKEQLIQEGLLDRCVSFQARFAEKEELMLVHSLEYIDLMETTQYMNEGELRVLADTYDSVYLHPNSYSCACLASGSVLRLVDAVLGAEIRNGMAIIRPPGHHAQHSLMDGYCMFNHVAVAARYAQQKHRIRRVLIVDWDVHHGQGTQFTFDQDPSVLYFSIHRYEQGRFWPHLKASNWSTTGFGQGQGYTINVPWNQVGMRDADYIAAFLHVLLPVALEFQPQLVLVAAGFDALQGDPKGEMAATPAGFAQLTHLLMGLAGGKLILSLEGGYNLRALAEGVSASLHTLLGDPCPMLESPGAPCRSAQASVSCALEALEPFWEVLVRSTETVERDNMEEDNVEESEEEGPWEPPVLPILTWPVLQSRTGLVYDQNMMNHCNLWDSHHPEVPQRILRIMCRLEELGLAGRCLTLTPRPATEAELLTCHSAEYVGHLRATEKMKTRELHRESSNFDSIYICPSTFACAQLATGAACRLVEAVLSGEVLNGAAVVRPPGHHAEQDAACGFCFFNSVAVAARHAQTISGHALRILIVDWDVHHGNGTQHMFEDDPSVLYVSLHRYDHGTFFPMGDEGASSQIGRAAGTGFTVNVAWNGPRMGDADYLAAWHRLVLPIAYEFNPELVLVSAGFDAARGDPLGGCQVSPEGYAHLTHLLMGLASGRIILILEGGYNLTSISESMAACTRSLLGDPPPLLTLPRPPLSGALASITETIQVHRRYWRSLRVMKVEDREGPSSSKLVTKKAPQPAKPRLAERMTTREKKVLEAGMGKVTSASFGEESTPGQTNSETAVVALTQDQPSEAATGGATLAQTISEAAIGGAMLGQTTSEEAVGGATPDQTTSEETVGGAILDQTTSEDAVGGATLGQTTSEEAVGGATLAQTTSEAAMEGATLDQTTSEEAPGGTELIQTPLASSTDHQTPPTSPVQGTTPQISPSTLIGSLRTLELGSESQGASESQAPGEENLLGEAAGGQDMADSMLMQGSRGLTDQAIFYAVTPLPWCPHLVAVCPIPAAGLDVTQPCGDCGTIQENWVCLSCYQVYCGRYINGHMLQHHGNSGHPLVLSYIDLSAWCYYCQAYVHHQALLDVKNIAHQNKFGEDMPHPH
UniProt Q9UQL6: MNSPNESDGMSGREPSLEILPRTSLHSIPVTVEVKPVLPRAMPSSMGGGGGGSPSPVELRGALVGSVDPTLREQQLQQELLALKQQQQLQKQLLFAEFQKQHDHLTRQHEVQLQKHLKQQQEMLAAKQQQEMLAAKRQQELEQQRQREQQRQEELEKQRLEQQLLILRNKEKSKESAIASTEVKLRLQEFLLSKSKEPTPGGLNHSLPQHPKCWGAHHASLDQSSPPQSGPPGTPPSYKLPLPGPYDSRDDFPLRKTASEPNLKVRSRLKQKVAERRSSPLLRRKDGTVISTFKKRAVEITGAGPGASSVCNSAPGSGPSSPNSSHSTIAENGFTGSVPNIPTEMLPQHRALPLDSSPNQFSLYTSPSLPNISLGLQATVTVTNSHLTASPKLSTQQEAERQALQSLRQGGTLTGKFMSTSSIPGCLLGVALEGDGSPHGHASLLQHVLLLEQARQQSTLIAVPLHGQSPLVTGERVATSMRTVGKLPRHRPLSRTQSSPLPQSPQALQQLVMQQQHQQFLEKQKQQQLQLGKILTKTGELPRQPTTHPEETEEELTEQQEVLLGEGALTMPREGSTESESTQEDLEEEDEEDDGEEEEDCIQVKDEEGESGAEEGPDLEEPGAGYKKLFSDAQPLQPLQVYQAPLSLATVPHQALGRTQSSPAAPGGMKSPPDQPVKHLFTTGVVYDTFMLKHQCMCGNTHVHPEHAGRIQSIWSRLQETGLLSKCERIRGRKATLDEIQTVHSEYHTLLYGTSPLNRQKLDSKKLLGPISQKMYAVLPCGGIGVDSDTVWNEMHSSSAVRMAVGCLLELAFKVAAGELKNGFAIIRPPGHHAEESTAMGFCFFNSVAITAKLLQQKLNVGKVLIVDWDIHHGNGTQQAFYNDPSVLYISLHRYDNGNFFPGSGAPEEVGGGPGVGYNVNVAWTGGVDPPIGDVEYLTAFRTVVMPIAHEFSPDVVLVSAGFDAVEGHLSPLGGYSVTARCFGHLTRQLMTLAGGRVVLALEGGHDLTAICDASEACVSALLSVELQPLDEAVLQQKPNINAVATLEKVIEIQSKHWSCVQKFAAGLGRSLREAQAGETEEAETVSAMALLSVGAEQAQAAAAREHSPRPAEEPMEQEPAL
UniProt Q8WUI4: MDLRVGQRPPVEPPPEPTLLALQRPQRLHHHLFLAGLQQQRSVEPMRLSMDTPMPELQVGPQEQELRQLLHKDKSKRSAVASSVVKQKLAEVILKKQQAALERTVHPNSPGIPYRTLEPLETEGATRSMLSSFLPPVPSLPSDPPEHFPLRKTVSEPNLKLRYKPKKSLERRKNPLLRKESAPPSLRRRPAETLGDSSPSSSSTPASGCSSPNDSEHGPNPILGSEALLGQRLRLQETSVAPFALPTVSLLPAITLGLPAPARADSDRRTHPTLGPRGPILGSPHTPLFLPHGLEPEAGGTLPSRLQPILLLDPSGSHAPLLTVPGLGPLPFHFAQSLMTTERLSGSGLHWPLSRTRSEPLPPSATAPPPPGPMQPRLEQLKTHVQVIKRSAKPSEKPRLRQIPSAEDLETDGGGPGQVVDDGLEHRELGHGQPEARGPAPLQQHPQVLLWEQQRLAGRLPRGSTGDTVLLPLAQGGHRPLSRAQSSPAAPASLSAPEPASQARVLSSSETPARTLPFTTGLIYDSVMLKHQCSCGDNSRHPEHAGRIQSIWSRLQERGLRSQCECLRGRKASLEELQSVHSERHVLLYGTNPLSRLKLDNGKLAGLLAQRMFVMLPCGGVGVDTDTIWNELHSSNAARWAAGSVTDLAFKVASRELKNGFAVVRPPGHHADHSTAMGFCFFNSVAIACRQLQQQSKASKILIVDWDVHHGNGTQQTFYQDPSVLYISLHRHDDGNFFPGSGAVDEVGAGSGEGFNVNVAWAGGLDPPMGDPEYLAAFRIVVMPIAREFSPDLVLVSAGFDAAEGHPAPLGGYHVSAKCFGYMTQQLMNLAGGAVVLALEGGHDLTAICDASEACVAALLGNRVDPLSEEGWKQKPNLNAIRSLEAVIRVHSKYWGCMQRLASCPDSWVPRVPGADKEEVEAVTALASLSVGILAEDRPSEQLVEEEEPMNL
UniProt Q96DB2: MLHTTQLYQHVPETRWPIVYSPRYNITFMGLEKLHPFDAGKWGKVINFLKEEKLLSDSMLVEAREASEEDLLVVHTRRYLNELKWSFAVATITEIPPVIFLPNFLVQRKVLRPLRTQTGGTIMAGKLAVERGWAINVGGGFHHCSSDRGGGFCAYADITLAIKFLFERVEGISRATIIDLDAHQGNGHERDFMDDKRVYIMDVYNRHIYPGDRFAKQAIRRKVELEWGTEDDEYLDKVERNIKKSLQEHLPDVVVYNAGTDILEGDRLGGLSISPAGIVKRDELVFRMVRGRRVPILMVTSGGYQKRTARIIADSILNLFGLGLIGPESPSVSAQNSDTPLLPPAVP
UniProt P56524: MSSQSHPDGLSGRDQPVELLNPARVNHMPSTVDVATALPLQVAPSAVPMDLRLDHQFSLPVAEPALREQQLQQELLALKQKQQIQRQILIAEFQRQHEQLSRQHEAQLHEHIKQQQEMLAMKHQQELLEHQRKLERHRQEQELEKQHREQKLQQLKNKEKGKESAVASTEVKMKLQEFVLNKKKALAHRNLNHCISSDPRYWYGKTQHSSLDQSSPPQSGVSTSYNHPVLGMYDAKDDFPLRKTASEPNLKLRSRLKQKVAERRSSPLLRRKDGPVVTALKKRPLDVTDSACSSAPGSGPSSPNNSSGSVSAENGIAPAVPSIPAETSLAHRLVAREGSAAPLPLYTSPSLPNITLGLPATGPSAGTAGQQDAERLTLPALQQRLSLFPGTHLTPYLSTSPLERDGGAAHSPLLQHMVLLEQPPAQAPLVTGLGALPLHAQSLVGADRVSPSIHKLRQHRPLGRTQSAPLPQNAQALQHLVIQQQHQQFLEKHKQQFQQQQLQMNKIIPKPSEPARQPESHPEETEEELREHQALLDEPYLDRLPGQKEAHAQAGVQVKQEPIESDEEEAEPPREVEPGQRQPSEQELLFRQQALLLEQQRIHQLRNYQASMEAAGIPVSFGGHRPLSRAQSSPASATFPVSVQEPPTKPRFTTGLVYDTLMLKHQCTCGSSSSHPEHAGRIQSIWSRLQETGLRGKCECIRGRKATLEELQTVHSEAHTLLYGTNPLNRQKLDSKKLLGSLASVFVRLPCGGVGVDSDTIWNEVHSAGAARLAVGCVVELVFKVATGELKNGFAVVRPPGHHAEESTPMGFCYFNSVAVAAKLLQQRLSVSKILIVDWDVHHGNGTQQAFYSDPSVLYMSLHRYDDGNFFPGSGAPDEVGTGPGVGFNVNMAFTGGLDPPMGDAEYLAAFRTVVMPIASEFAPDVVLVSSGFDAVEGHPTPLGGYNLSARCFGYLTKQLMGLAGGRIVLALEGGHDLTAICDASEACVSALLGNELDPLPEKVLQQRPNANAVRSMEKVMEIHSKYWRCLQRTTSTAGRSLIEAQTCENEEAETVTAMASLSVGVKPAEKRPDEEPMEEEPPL
UniProt P03372, whole entry: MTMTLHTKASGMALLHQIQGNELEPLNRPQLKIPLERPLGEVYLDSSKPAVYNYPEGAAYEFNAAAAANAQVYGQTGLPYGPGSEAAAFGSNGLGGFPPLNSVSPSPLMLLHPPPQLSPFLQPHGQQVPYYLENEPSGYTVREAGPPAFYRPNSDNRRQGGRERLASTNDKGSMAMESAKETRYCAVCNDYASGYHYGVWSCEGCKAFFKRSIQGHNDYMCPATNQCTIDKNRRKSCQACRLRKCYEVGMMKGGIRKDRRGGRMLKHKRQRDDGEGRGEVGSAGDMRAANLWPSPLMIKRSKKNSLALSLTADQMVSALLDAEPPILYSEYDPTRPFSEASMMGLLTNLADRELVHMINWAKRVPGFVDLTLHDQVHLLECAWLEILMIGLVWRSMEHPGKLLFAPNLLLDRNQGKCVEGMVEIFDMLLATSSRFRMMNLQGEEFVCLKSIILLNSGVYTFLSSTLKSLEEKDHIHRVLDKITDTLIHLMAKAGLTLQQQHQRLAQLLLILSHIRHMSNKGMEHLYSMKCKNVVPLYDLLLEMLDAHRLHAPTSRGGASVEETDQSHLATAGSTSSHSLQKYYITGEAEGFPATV

SMILES	inhibition [1]	Activity [2]
O=C(CCCCCOc1ccc(-c2sc3cc(O)ccc3c2C(=O)c2ccc(OCCN3CCCCC3)cc2)cc1)NO	Dose-Dependent Effect	–
O=C(CCCCCCC(=O)Nc1ccccc1)NO	–	Dose-Dependent Effect
O=C(CCCCCc1ccc(-c2sc3cc(O)ccc3c2C(=O)c2ccc(OCCN3CCCCC3)cc2)cc1)NO	Dose-Dependent Effect	–

Source: ChEMBL document CHEMBL5550172 (Eur J Med Chem, 2024)
